Experimental data reported in patent US20080299592A1, “Red-Shifted Luciferase” (priority 2007, published 2008).

System: HeLa cells
Assay: Intracellular staining of mammalian tissue culture cells (HeLa) with bis-arsenical dyes
Assay type: cell-based
Conditions: deep red fluorescence

bis-arsenical oxazine 170 [As2Ox170]
photobleaching: less prone to photobleaching than either FlAsH or ReAsH
